Results from patent publication US10005817.

Chains of the proteins cited; added tags and fusions are not shown. Residues count along the entry.
UniProt Q03431, 27-593: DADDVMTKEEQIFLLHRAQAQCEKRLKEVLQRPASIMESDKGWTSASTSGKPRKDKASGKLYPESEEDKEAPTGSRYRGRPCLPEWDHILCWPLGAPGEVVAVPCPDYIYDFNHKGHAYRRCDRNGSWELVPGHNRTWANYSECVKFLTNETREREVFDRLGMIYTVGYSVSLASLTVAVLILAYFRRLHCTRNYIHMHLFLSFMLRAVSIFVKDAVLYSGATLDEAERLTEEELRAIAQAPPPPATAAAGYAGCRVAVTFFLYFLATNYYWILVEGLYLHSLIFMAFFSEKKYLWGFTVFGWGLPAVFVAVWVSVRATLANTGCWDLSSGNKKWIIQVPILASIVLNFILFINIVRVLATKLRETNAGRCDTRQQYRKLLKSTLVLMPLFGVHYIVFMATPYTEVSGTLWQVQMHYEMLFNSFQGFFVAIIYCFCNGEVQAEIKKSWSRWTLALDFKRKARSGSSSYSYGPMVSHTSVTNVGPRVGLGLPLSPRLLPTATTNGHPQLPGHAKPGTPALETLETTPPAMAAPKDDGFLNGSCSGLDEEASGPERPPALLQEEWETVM

Target: PTH receptor (PTHR1) (human) (UniProt Q03431)
Assay: cell-based or functional assay

- maximal response: 100%
Substance: human PTHrP (coded sample) (from UniProt P12272 37-70) (ligand)
